One substance from patent US9561197B2 (Horizon Therapeutics, LLC, priority 2012, dated 2017) can be followed below.

For the data set the following is noted: Patient 2; NaPBA 450 mg/Kg/day for one week.

Consider sodium phenylbutyrate [NaPBA], for which the PAGN is 150 µg/L; the clinical presentation result is “eating well and was no longer somnolent”.
